Assay results from US6011070A, “Slow-onset, long-lasting dopamine reuptake blockers” (priority 1997, dated 2000).

Sequences of proteins named here, by UniProt entry; tags and fusion partners are left off.
UniProt P23977, whole entry: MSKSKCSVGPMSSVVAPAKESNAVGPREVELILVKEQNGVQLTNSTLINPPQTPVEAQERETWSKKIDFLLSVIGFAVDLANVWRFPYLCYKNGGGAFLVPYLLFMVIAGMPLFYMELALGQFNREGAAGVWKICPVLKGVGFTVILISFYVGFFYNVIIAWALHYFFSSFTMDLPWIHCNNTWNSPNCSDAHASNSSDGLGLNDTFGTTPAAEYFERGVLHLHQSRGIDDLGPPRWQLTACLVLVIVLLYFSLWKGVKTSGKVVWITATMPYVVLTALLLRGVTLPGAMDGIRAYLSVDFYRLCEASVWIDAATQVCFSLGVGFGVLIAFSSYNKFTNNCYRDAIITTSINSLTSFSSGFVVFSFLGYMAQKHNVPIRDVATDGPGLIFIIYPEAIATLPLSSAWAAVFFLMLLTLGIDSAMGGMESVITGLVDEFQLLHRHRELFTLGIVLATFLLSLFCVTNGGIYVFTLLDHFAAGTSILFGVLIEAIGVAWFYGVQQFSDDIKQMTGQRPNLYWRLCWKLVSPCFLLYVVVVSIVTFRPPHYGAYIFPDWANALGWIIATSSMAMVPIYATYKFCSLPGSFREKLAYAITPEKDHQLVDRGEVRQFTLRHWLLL

What was measured:
[1] = molecular target: T1, dopamine transporter (Rattus norvegicus, UniProt P23977); experiment: Inhibition of binding of dopamine to the dopamine transporter (Example 4)
T1 construct: from tissue

[2] = molecular target: T1, dopamine transporter; experiment: Inhibition of dopamine reuptake (Example 4); assay type: biochemical; settings: read-out: DA Uptake, inhibition of dopamine reuptake IC50

CNC1CC(c2ccc(Cl)c(Cl)c2)c2ccccc21 (centres unmarked) [Compound 5]
IC50 [1]: 9.5 nM
IC50 [2]: 9.8 nM
